Measurements published in US10617743B2, “Method to improve safety and efficacy of anti-cancer therapy” (CLS Therapeutics Limited, priority 2014, dated 2020).

Tests used:
[1] = Acute doxorubicin toxicity in rats: body weight of surviving rats; conditions: Doxorubicin 3.75 mg/kg, DNase I 15 mg/kg/day IP
[2] = Acute doxorubicin toxicity in rats: blood cell counts and blood biochemistry; conditions: surviving rats; Doxorubicin 3.75 mg/kg; DNase I 15 mg/kg/day IP

B1: human recombinant DNase I: human recombinant DNase I (Pharmsynthez OJSC), deoxyribonuclease enzyme (protein, UniProt P24855 23-282, looked up)
Deoxyribonuclease-1: LKIAAFNIQTFGETKMSNATLVSYIVQILSRYDIALVQEVRDSHLTAVGKLLDNLNQDAPDTYHYVVSEPLGRNSYKERYLFVYRPDQVSAVDSYYYDDGCEPCGNDTFNREPAIVRFFSRFTEVREFAIVPLHAAPGDAVAEIDALYDVYLDVQEKWGLEDVMLMGDFNAGCSYVRPSQWSSIRLWTSPTFQWLIPDSADTTATPTHCAYDRIVVAGMLLRGAVVPDSALPFNFQAAYGLSDQLAQAISDHYPVEVMLK
Effect on body weight loss after acute doxorubicin challenge [1]: ameliorates body weight loss
Effect on bone marrow toxicity and catabolic changes in blood biochemistry [2]: ameliorates bone marrow toxicity and catabolic changes in blood biochemistry
